Reference: patent US20210156868A1, “COMPOSITIONS AND METHODS FOR DETECTING ALBUMIN” (Tournament BioVenture LLC, priority 2019, published 2021)

Protein sequences, listed by entry. Tags and fused reporters are not part of them. Residues count along the entry.
UniProt P02768, 25-609: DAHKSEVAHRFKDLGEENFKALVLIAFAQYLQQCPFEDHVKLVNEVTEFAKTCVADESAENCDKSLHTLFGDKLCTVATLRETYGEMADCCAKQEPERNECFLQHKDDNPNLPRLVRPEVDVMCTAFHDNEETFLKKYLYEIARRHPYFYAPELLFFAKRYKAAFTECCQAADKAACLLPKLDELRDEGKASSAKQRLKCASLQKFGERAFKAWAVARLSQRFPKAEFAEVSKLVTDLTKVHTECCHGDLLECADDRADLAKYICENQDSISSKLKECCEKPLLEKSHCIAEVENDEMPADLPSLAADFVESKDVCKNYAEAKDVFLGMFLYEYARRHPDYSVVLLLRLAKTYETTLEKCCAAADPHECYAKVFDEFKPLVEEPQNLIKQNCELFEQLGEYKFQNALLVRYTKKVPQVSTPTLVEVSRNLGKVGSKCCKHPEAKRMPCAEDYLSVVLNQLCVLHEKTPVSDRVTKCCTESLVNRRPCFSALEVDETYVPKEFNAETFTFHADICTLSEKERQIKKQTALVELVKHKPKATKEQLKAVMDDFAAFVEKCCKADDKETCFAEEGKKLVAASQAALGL

Target: HSA pseudo esterase activity (Homo sapiens, UniProt P02768)
Conditions: inhibitor 15-20 mM final concentration; 1.5 mM 14:0 NPS-PC, pH 7.4

## Cl.NCCc1ccc(S(=O)(=O)F)cc1 [Pefabloc SC, 4-(2-aminoethyl)benzenesulfonyl fluoride hydrochloride]
  albumin pseudo esterase activity maintained: > 90%
